Source: patent publication US4018930A, “Substituted indolobenzazepines” (Endo Laboratories, Inc., priority 1975, dated 1977)
Structures can show the parent of a compound that is named as a salt.

Legend:
mice [1] = assay: Decreased Locomotor Activity (L.M.A.), primary rodent screen; assay type: in vivo, mouse; conditions: po, read-out: L.M.A. ED50 (decreased locomotor activity)
mice [2] = assay: Ptosis (Pto.), primary rodent screen; assay type: in vivo, mouse; conditions: po, read-out: Pto. ED50 (ptosis)
mice [3] = assay: Phenylquinone Writhing (P.Q.W.) test, analgesic activity; assay type: in vivo, mouse; conditions: 0.5 h, po, read-out: P.Q.W. ED50 (analgesic ED50)
Method: The analgesic activity of the compounds of the present invention is conveniently determined in a phenylquinone writhing test, as described below:
Phenylquinone Writhing (P.Q.W.):
results given in: mg/kg po/mouse
Groups of at least 10 mice are given phenyl-p-benzoquinone 2.5 mg/kg intraperitoneally 30 minutes after oral administration of graded doses of the test substance. Two or more dose levels are used for each compound. For scoring purposes, a "writhe" is defined as stretching, twisting of a hindleg inward, or contraction of the abdomen. The total number of writhes for each animal, treated and control animals side-by-side, are counted over a 30-minute time interval. […] The P.Q.W. test is widely used as an indicator of potential analgesic activity in man, especially for non-narcotic substances.

Solubility in water = assay type: physicochemical
[4] = mouse, oral dose producing score of at least -1
[5] = mouse, phenyl-p-benzoquinone 2.5 mg/kg ip 30 min after dose, 30-minute count

Row | Structure (SMILES) | ED50 (mice [1]; [4]) | ED50 (mice [2]; mouse, passive ptosis) | ED50 (mice [3]; [5]) | LD50 (in vivo) | ED50 (mice [3]; Mus musculus) | solubility in water (Solubility in water) | ED50 (mice [1]; Mus musculus) | ED50 (mice [2]; Mus musculus)
1 | CC(=O)CCN1CC[C@@H]2[C@@H](C1)c1cccc3c1N2c1ccccc1CC3 (racemic) [Example 6, (±)-4-(trans-1,2,3,4,4a,8,9,14a-octahydropyrido[4',3':2,3]indolo[1,7-ab][1]benzazepin-3-yl)-2-butanone] | 8 mg/kg | 7.1 mg/kg | 1.25 mg/kg | > 324 mg/kg |  |  |  | 
2 | COc1ccc2c3c1O[C@H]1[C@@H](O)C=C[C@H]4[C@@H](C2)N(C)CC[C@@]341 [codeine phosphate, reference compound] |  |  |  |  | 19 mg/kg |  |  | 
3 | CC(Cl)=CCN1CC[C@@H]2[C@@H](C1)c1cccc3c1N2c1ccccc1CC3 (racemic) [Example 1, (±)-trans-3-(3-chloro-2-butenyl)-1,2,3,4,4a,8,9,14a-octahydropyrido[4',3':2,3]indolo[1,7-ab][1]benzazepine] | > 300 mg/kg | > 300 mg/kg | 86 mg/kg | > 300 mg/kg |  |  |  | 
4 | c1ccc2c(c1)CCc1cccc3c4c(n-2c13)CCNC4 [1,2,3,8,9-hexahydropyrido[4',3':2,3]=indolo[1,7ab][1]benzazepine hydrochloride] |  |  |  |  |  | only very slightly soluble in water |  | 
5 | O=C(CCN1CC[C@@H]2[C@@H](C1)c1cccc3c1N2c1ccccc1CC3)c1ccccc1 (racemic) [Example 8, (±)-3-(trans-1,2,3,4,4a,8,9,14a-octahydropyrido[4',3':2,3]indolo[1,7-ab][1]benzazepin-3-yl)propiophenone] | 200 mg/kg | 20 mg/kg | 26 mg/kg | > 324 mg/kg |  |  |  | 
6 | CC(=O)CN1CC[C@@H]2[C@@H](C1)c1cccc3c1N2c1ccccc1CC3 (relative stereo) [Example 3, (±)-trans-3-acetonyl-1,2,3,4,4a,8,9,14a-octahydropyrido[4',3':2,3]indolo[1,7-ab][1]benzazepipine] | 2 mg/kg | 4 mg/kg | 2 mg/kg | > 300 mg/kg |  |  |  | 
7 | CC(=O)CCCN1CC[C@@H]2[C@@H](C1)c1cccc3c1N2c1ccccc1CC3 (racemic) [Example 7, (±)-5-(trans-1,2,3,4,4a,8,9,14a-octahydropyrido[4',3':2,3]indolo[1,7-ab][1]benzazepin-3-yl)-2-pentanone] | 2.6 mg/kg | 1.3 mg/kg | 1.4 mg/kg | > 324 mg/kg |  |  |  | 
8 | CN(C)CCCN1c2ccccc2Sc2ccc(Cl)cc21 [chlorpromazine (HCl), chlorpromazine, reference compound] |  |  |  |  |  |  | 5 mg/kg | 6 mg/kg
